Assay results: patent US20260120837A1, “METHODS OF DOSING THERAPEUTIC AGENTS” (Fusion Pharmaceuticals Inc., priority 2022, published 2026)

Key:
[1] = PK parameters and Ctrans, two-compartment model with nonlinear M-M clearance only (cetuximab, alemtuzumab); type: in vivo, human; conditions: calculated by Equation (3)
Method: For this kind of PK model, Ctrans is determined according to Equation (3): […]
PK parameters listed in Table 1, i.e., Vc, Vp, Q, VM and KM, were obtained based on the protocols disclosed in Dirks et al., 2008 and Mould et al., 2007, with modification to be consistent with the current model description provided herein.

[2] = cited from earlier work

## Cetuximab: antibody; PK described by two-compartment model with nonlinear only clearance
[1]
  Ctrans: 74 (μg/mL)
[2]; M-M equation coefficient
  KM: 74 (μg/mL)
  VM: 4.38 (mg/hour)
[2]; central compartment distribution volume
  Vc: 2.83 (L)
[2]; exchange rate between compartments
  Q: 0.103 (L/hour) ^
[2]; peripheral compartment distribution volume
  Vp: 2.43 (L)
